US9611262B2, “Substituted 2-azabicycles and their use as orexin receptor modulators” (JANSSEN PHARMACEUTICA NV, priority 2014, dated 2017)

By UniProt entry, the sequences of proteins in these tests, tags left out.
UniProt O43614, whole entry: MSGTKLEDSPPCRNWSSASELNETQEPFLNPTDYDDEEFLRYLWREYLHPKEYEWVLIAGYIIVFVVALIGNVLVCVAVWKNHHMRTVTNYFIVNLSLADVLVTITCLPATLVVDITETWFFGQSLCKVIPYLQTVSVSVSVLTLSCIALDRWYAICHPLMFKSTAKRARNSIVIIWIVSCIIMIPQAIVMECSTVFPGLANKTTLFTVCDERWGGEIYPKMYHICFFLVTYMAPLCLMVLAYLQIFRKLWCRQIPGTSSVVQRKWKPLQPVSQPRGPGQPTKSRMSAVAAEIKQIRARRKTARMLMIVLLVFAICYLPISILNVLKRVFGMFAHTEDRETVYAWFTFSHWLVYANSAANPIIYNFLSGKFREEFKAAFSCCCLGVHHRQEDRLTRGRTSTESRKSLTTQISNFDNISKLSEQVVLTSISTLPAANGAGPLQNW

Target: human orexin 2 receptor (Homo sapiens (Human), UniProt O43614)
Experiment: Human orexin 2 receptor radioligand binding ([3H]-EMPA competition)
Conditions: HEK293 stably expressing human orexin 2 receptor; 2 nM [3H]-EMPA; averages of 2-20 runs; read-out: hOX2 Ki
Method: The in vitro affinity of the compounds of the invention for the rat/human orexin 1 and human orexin 2 receptors was determined by competitive radioligand binding using [^3H](1-(5-(2-fluoro-phenyl)-2-methyl-thiazol-4-yl)-1-((S)-2-(5-phenyl-(1,3,4)oxadiazol-2-ylmethyl)-pyrrolidin-1-yl)-methanone) (Langmead et al., 2004) and [^3H]EMPA (n-ethyl-2[96-methoxy-pyridin-3-yl)-(toluene-2-sulfonyl)-amino]-N-pyridin-3-ylmethyl acetamide), respectively (Langmead et al., 2004, British Journal of Pharmacology 141:340-346; Malherbe et al., 2004, British Journal of Pharmacology 156:1326-41).
Data are analyzed using pc-Sandy macro and graphed on Graphpad Prism 5. For analysis, each concentration point is averaged from triplicate values and the averaged values are plotted on Graphpad Prism. The IC50 was determined by applying the following equation (GraphPad Prism 5.0, San Diego) for one site competition where X=log (concentration) and Y=specific binding. Top denotes the total [^3H]— (1-(5-(2-fluoro-phenyl)-2-methyl-thiazol-4-yl)-1-((S)-2-(5-phenyl-(1,3,4)oxadiazol-2-ylmethyl)-pyrrolidin-1-yl)-methanone) binding, bottom denotes the nonspecific [^3H]— (1-(5-(2-fluoro-phenyl)-2-methyl-thiazol-4-yl)-1-((S)-2-(5-phenyl-(1,3,4)oxadiazol-2-ylmethyl)-pyrrolidin-1-yl)-methanone) binding. Graphpad Prism calculates Ki value from IC50 and the pre-determined Kd values for [^3H]— (1-(5-(2-fluoro-phenyl)-2-methyl-thiazol-4-yl)-1-((S)-2-(5-phenyl-(1,3,4)oxadiazol-2-ylmethyl)-pyrrolidin-1-yl)-methanone) and [^3H]-EMPA. The Ki for each compound is then uploaded into 3DX. Each run comprises individual compounds in triplicate. The data in Table 1 and Table 2 represent averages from between 2-20 runs
Human Orexin 2 Receptor Radioligand Binding Studies
HEK293 stably expressing human orexin 2 receptor (Genebank accession number NM_001526) were grown to confluency in DMEM (Hyclone, cat # SH30022), 10% FBS, 1× Pen/Strep, 1× NaPyruvate, 10 mM HEPES, 600 μg/ml G418 media on 150 cm^2 tissue culture plates, washed with 5 mM EDTA in PBS (HyClone Dulbecco's Phosphate Buffered Saline 1× with Calcium and Magnesium, Cat # SH30264.01, hereafter referred to simply as PBS) and scraped into 50 ml tubes. After centrifugation (2K×G, 5 min at 4° C.), the supernatant was aspirated and the pellets frozen and stored at −80° C. Cells were resuspended in PBS in the presence of 1 tablet of protease inhibitor cocktail (Roche, Cat. #11836145001) per 50 mL. […] Compounds were solubilized in 100% DMSO (Acros Organics, Cat. #61042-1000) and tested over a range of 7 concentration (from 0.1 nM to 10 μM). The final concentration of DMSO in the reactions is equal to or less than 0.1%. Total and nonspecific binding was determined in the absence and presence of 10 μM almorexant. The total volume of each reaction is 200 μL (20 μL of diluted compounds, 80 μL of [^3H]-EMPA diluted in PBS and 100 μL of the cell suspension). Reactions were run for 60 min at room temperature and terminated by filtration through GF/C filter plates (PerkinElmer, Cat. #6005174) presoaked in 0.3% polyethylenimine using the cell harvester (PerkinElmer Filtermate). The plates were washed 3 times by aspirating 30 ml PBS through the plates. Plates were dried in 55° C. oven for 60 min, scintillation fluid was added, and the radioactivity was counted on a Topcount (Packard).

SMILES | Ki [nM]
Cc1ccc(C(=O)N2C(C)C3CC(Oc4ccc(C(F)(F)F)cn4)C2C3)c(-n2nccn2)n1 (racemic) [Example 10, (R/S)-(6-methyl-2-(2H-1,2,3-triazol-2-yl)pyridin-3-yl)(3-methyl-6-((5-(trifluoromethyl)pyridin-2-yl)oxy)-2-azabicyclo[2.2.1]heptan-2-yl)methanone] | > 10000
CC1C2CC(Oc3ccc(C(F)(F)F)cn3)C(C2)N1C(=O)c1ccccc1-c1ncccn1 (racemic) [Example 15, (R/S)-(3-methyl-6-((5-(trifluoromethyl)pyridin-2-yl)oxy)-2-azabicyclo[2.2.1]heptan-2-yl)(2-(pyrimidin-2-yl)phenyl)methanone] | 1200
CC1C2CC(Oc3ccc(C(F)(F)F)cn3)C(C2)N1C(=O)c1ccc(F)cc1-c1ncccn1 (racemic) [Example 17, (R/S)-(4-fluoro-2-(pyrimidin-2-yl)phenyl)(−3-methyl-6-((5-(trifluoromethyl)pyridin-2-yl)oxy)-2-azabicyclo[2.2.1]heptan-2-yl)methanone] | 1100
Cc1cnc(C(=O)N2[C@H](C)[C@H]3C[C@@H](Oc4ccc(C(F)(F)F)cn4)[C@@H]2C3)c(-n2nccn2)c1 (relative stereo) [Example 24, (5-methyl-3-(2H-1,2,3-triazol-2-yl)pyridin-2-yl)((1S*,3R*,4R*,6R*)-3-methyl-6-((5-(trifluoromethyl)pyridin-2-yl)oxy)-2-azabicyclo[2.2.1]heptan-2-yl)methanone] | 1500
CC1C2CC(Oc3ccc(C(F)(F)F)cn3)C(C2)N1C(=O)c1ccccc1-n1nccn1 (single isomer, unassigned) [Example 2, (R/S)-(2-(2H-1,2,3-triazol-2-yl)phenyl)(3-methyl-6-((5-(trifluoromethyl)pyridin-2-yl)oxy)-2-azabicyclo[2.2.1]heptan-2-yl)methanone] | 668
CC1C2CC(Oc3ccc(C(F)(F)F)cn3)C(C2)N1C(=O)c1ccccc1-n1nccn1 (single isomer, unassigned) [Example 2A, (2-(2H-1,2,3-triazol-2-yl)phenyl)((1R*,3R*,4S*,6S*)-3-methyl-6-((5-(trifluoromethyl)pyridin-2-yl)oxy)-2-azabicyclo[2.2.1]heptan-2-yl)methanone] | > 10000
CC1C2CC(Oc3ccc(C(F)(F)F)cn3)C(C2)N1C(=O)c1ccccc1-n1nccn1 (single isomer, unassigned) [Example 2B, (2-(2H-1,2,3-triazol-2-yl)phenyl)((1S*,3S*,4R*,6R*)-3-methyl-6-((5-(trifluoromethyl)pyridin-2-yl)oxy)-2-azabicyclo[2.2.1]heptan-2-yl)methanone] | 975
Cc1ccc(-n2nccn2)c(C(=O)N2C(C)C3CC(Oc4ccc(C(F)(F)F)cn4)C2C3)n1 (single isomer, unassigned) [Example 3B, (6-methyl-3-(2H-1,2,3-triazol-2-yl)pyridin-2-yl)((1S*,3S*,4R*,6R*)-3-methyl-6-((5-(trifluoromethyl)pyridin-2-yl)oxy)-2-azabicyclo[2.2.1]heptan-2-yl)methanone] | > 10000
Cc1ccc(-c2ncccn2)c(C(=O)N2C(C)C3CC(Oc4ccc(C(F)(F)F)cn4)C2C3)n1 (single isomer, unassigned) [Example 16A, (6-methyl-3-(pyrimidin-2-yl)pyridin-2-yl)((1R*,3S*,4S*,6S*)-3-methyl-6-((5-(trifluoromethyl)pyridin-2-yl)oxy)-2-azabicyclo[2.2.1]heptan-2-yl)methanone] | > 10000
CC1C2CC(Oc3ccc(C(F)(F)F)cn3)C(C2)N1C(=O)c1ccccc1-c1ncc(F)cn1 (single isomer, unassigned) [Example 19A, (2-(5-fluoropyrimidin-2-yl)phenyl)((1R*,3S*,4S*,6S*)-3-methyl-6-((5-(trifluoromethyl)pyridin-2-yl)oxy)-2-azabicyclo[2.2.1]heptan-2-yl)methanone] | > 10000
CC1C2CC(Oc3ccc(C(F)(F)F)cn3)C(C2)N1C(=O)c1ccccc1-n1nccn1 (single isomer, unassigned) [Example 21, (R/S)-(2-(2H-1,2,3-triazol-2-yl)phenyl)(3-methyl-6-((5-(trifluoromethyl)pyridin-2-yl)oxy)-2-azabicyclo[2.2.1]heptan-2-yl)methanone] | 619
CC1C2CC(Oc3ccc(C(F)(F)F)cn3)C(C2)N1C(=O)c1ccccc1-n1nccn1 (single isomer, unassigned) [Example 21A, (2-(2H-1,2,3-triazol-2-yl)phenyl)((1R*,3S*,4S*,6S*)-3-methyl-6-((5-(trifluoromethyl)pyridin-2-yl)oxy)-2-azabicyclo[2.2.1]heptan-2-yl)methanone] | > 10000
CC1C2CC(Oc3ccc(C(F)(F)F)cn3)C(C2)N1C(=O)c1ccccc1-n1nccn1 (single isomer, unassigned) [Example 21B, (2-(2H-1,2,3-triazol-2-yl)phenyl)((1S*,3R*,4R*,6R*)-3-methyl-6-((5-(trifluoromethyl)pyridin-2-yl)oxy)-2-azabicyclo[2.2.1]heptan-2-yl)methanone] | 518
Cc1ccc(-n2nccn2)c(C(=O)N2C(C)C3CC(Oc4ccc(C(F)(F)F)cn4)C2C3)n1 (single isomer, unassigned) [Example 22A, (6-methyl-3-(2H-1,2,3-triazol-2-yl)pyridin-2-yl)((1R*,3S*,4S*,6S*)-3-methyl-6-((5-(trifluoromethyl)pyridin-2-yl)oxy)-2-azabicyclo[2.2.1]heptan-2-yl)methanone] | > 10000
C[C@@H]1[C@H]2C[C@@H](Oc3ccc(Cl)cn3)[C@H](C2)N1C(=O)c1ccccc1-n1nccn1 [Example 121, [(1R,2R,4S,5R)-5-[(5-chloro-2-pyridyl)oxy]-2-methyl-3-azabicyclo[2.2.1]heptan-3-yl]-[2-(triazol-2-yl)phenyl]methanone] | 423
[2H]C1([2H])[C@H]2C[C@@H]([C@@H]1Oc1ccc(C(F)(F)F)cn1)N(C(=O)c1ccccc1-n1nccn1)[C@@H]2C [Example 201, [(1R,3R,4S,6R)-2,2-dideuterio-6-methyl-3-[[5-(trifluoromethyl)-2-pyridyl]oxy]-5-azabicyclo[2.2.1]heptan-5-yl]-[2-(triazol-2-yl)phenyl]methanone] | 691
